These are literature values, as cited in patent publication US7741370B2, “Double salts of (−)-hydroxycitric acid and a process for preparing the same” (Laila Impex, priority 2004, dated 2010).

For this data set the following is noted: prior-art salt (Singh et al.), statement in words.

As to calcium salt of HCA, the solubility in water entry is listed as “not very soluble in water”.
